Data as given in patent US12076312B2, “Repurposing anti-androgen therapy for COVID-19 and immunotherapy” (Wisconsin Alumni Research Foundation, priority 2021, dated 2024).

Legend:
[1] = system: AR protein translocation in A549; test: AR immunofluorescent imaging, nuclear translocation; settings: A549, 5 μM enzalutamide with 1 nM R1881, 24 h
[2] = system: AR protein translocation in H2228; test: as above; settings: H2228, 5 μM enzalutamide with 1 nM R1881, 24 h

CNC(=O)c1ccc(N2C(=S)N(c3ccc(C#N)c(C(F)(F)F)c3)C(=O)C2(C)C)cc1F [enzalutamide]
transport of liganded AR to the nucleus [1]: disrupted
transport of liganded AR to the nucleus [2]: disrupted
